Columns and labels:
[1] = target: human THRβ (Homo sapiens (Human), UniProt P10828); assay: THR reporter gene method, agonistic activity on THRβ (Huh7 cells, PGL4.26-DR4-Luc); type: cell-based; conditions: for β selectivity: (EC50 compound THRα/EC50 T3 THRα)/(EC50 compound THRβ/EC50 T3 THRβ); for Activity or selectivity compared with the positive control (MGL-3196): THR reporter gene assay, summary in words
[2] = system: serum cholesterol level; assay: Lowering effect on serum cholesterol level after single administration to ICR mice; conditions: 24 h after administration, solvent control as 100%
[3] = single intragastric dose 30 mg/kg

Chains of the proteins cited; added tags and fusions are not shown.
UniProt P10828, whole entry: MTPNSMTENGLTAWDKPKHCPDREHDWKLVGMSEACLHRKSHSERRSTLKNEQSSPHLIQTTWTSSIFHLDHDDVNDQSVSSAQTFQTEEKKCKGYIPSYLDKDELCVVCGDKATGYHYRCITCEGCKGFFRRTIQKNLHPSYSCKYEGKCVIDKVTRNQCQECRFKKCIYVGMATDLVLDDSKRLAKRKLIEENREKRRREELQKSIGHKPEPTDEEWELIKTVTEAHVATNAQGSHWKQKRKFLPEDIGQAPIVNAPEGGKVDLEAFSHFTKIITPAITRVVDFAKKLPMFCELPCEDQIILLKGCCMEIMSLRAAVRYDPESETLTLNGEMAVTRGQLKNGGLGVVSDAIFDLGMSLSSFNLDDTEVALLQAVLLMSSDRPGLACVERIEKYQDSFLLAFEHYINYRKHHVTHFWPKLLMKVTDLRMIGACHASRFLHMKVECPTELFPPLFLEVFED

Row | Structure (SMILES) | β selectivity [1] | Activity or selectivity compared with the positive control (MGL-3196) [1] | Percentage of reduction in serum cholesterol level ([2]; single intragastric dose 10 mg/kg) | Percentage of reduction in serum cholesterol level [2, 3]
1 | Cc1c(O)ccc2c1cnn2-c1c(Cl)cc(-n2nc(C#N)c(=O)[nH]c2=O)cc1Cl | 8.4 | significantly higher activity or selectivity than the positive control |  | 15.4%
2 | N#Cc1nn(-c2cc(Cl)c(-n3ncc4cc(O)ccc43)c(Cl)c2)c(=O)[nH]c1=O |  |  |  | 13.6%
3 | Cc1c(O)ccc2c1ccn2-c1c(Cl)cc(-n2nc(C#N)c(=O)[nH]c2=O)cc1Cl | 3.8 | significantly higher activity or selectivity than the positive control |  | 25.4%

More lines, main results first:

Row | β selectivity [1] | Structure (SMILES) | Activity or selectivity compared with the positive control (MGL-3196) [1] | Percentage of reduction in serum cholesterol level ([2]; single intragastric dose 10 mg/kg) | Percentage of reduction in serum cholesterol level [2, 3]
4 | 6 | N#Cc1nn(-c2cc(Cl)c(-n3ccc4cc(O)ccc43)c(Cl)c2)c(=O)[nH]c1=O | significantly higher activity or selectivity than the positive control | 20.0% | 
5 | 4.7 | N#Cc1nn(-c2cc(Cl)c(-n3ccc4cc(O)cnc43)c(Cl)c2)c(=O)[nH]c1=O |  |  | 
6 | 8 | N#Cc1nn(-c2cc(Cl)c(N3CCc4cc(O)ccc43)c(Cl)c2)c(=O)[nH]c1=O |  |  | 11.6%

Source: patent publication US20240059676A1, “THYROID HORMONE RECEPTOR b SELECTIVE AGONIST COMPOUND, PHARMACEUTICAL COMPOSITION AND USE THEREOF” (SHANGHAI INSTITUTE OF MATERIA MEDICA, CHINESE ACADEMY OF …, priority 2020, published 2024)
